The source of these data is PubChem BioAssay AID504770 (ICCB-Longwood Screening Facility, Harvard Medical School, 2011).

Only a part is listed here, and it is no random draw. Calls of active or inactive are those of the source. No stated cut-off is given here; in the data, active means z-score below about -2 (passing the limit was not always enough); inactive means the rest.

This assay can be described thus: PubChem AID 504770. The settings on record: E. coli YBA685 rctB-dependent plasmid, OD600 growth, 3 h; active compounds read low.
For the compound `CN(CCCl)CCCl`, the z-score was inactive: -0.55.
